# KCNH2 3.1 inh: KCNH2 3.1 (human) potassium channel inhibition | activity change, % (tested at about 1.8 µM) | actives 0.95% (n = 340,000) | U2OS KCNH2 3.1, thallium flux FluxOr; hits give low values | AID 720553;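 active = maximum activity change below -70%; inconclusive = maximum activity change from -70% to -50%; inactive = maximum activity change above -50%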;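 note: thallium influx rate constant from kinetic fluorescence after stimulation buffer; % is set by controls: 0 for no effect and ±100 for the full control effect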
#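 Thallium flux read-out: FluxOr dye with Red40 quencher in HBSS/HEPES, 45 min at RT. Rate constants from kinetic reads were normalized to positive and negative DMSO controls. Cells: U2OS virally expressing the 3.1 isoform.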
# KCNH2 WT inh: KCNH2 (human, wildtype) channel inhibition | U2OS, BacMam KCNH2, thallium flux FluxOr; hits give low values | activity change, % at 1.84 µM | actives 0.37% (n = 340,000) | AID 720551;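 active = maximum activity change below -70%; inconclusive = maximum activity change between -70% and -50%; inactive = maximum activity change above -50%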; note: % is set by controls: 0 for no effect and ±100 for the full control effect
#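 U2OS cells were transduced with wild-type KCNH2 virus (2.03 x 10^8 / mL) for 4 h at room temperature, then cultured overnight at 37 C. Thallium flux was read with FluxOr dye. Rate constants were normalized to DMSO controls.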
# Rango dissoc inh: inhibitors of RanGTP-induced Rango-importin beta complex dissociation. Biochemical FRET Rango-importin beta, RanGTP-induced dissociation. O95149+P62826. Potency, µM (doses to about 46.1 µM), for the others: at the top dose activity change, negative = inhibition. actives 0.071% (n = 340,000). AID 540253; note: potency is the fitted concentration of half-maximal effect; % of control where 0% means no effect; nearly all actives have a fitted effect of over 45% in size
#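 Recombinant Rango FRET biosensor (EYFP–snurportin 1 IBB–cerulean CFP10) at 0.1 uM premixed with 0.25 uM importin beta in PBS, 1 mM DTT, 0.02% Tween-20, 0.1% BSA. Compound added 5 min; RanGTP-RCC1 (0.6 uM Ran, 2 mM GTP, 0.2 uM RCC1) then triggers release, read at 45 min.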
# Rango complex inh: inhibitors of Rango-importin beta complex formation; actives 0.031% (n = 340,000); AID 540263; Q14974; Rango CFP/YFP FRET sensor + importin beta, 45 min; Potency, µM (series often up to 92.2 µM), for the others: top-dose inhibition of complex formation;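 note: potency is the fitted concentration of half-maximal effect; 0% = DMSO wells and 100% = buffer wells lacking importin beta; nearly all actives have a fitted effect of over 15% in size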
#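 FRET biosensor Rango (snurportin 1 IBB between N-terminal EYFP and C-terminal Cerulean), 50 nM in PBS/1 mM DTT/0.02% Tween-20/0.1% BSA, preincubated 5 min RT with compound; 0.125 microM importin beta added, 45 min RT, CFP/YFP FRET ratio read.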
# Starred values were filed as active, the others as inactive; i = inactive; ? = inconclusive; / = no result. In the library only some 1.3% were active in any assay of this set; here they are far more common. Unless noted, calls come from the whole dose curve.
Molecule	KCNH2 3.1 inh	KCNH2 WT inh	Rango dissoc inh	Rango complex inh
OC(COc1ccccc1)CN1CCCC1 (centres undefined)	25.0	2.9	9.7%	-1.5%
OC(COc1ccccc1)CN1CCN(C(c2ccccc2)c2ccccc2)CC1 (centres undefined)	-108.7*	-119.8*	15.2%	-0.4%
CSc1ncccc1C(=O)Nc1cccc(S(=O)(=O)N2CCCCCC2)c1	-1.5	16.9	-8.9%	2.0%
Cn1cc(CNCc2cnc3ccccn23)c(-c2ccc(Oc3ccccc3)cc2)n1	-206.7*	i	4.4%	1.6%
O=C(Nc1nc(-c2cccc3ccccc23)cs1)c1ccc2c(c1)S(=O)(=O)c1ccccc1C2=O	-106.1*	-33.4	-2.7%	-3.1%
Cc1csc(=O)n1CCC(=O)OCC(=O)Nc1ccc(Cl)cn1	-4.8	-7.2	-14.3%	-0.3%
O=C(COC(=O)c1ccc2ccccc2c1)NCc1ccccc1	-6.4	0.9	/	/
O=C(OCc1ccc(F)cc1)c1cc(S(=O)(=O)N2CCCCC2)ccc1N1CCOCC1	-15.6	7.0	?	-2.3%
O=C(OCc1ccc([N+](=O)[O-])cc1)c1cc(S(=O)(=O)N2CCCCC2)ccc1N1CCOCC1	-80.2*	-92.7*	-6.5%	-1.5%
CC(=O)C[C@H](O)CC(=O)[C@@H]1OC(=O)CCCCCCCCc2ccccc21	-4.1	-22.5	-6.1%	-0.4%
N#C/C(=C/c1ccc(-c2ccccc2)o1)c1nc(-c2cccs2)cs1	-75.9*	-19.9	?	?
N#C/C(=C\c1ccc(-c2ccc(F)cc2)o1)C(=O)Nc1nc(-c2cccs2)cs1	13.1	13.4	20.5%	1.3%
Cc1c(CCC(=O)NCCCn2ccnc2)c(=O)oc2c(C)c3oc4c(c3cc12)CCCC4	-159.1*	-150.1*	-22.6%	1.5%
Cc1c(CCC(=O)NCCCCCC(=O)O)c(=O)oc2c(C)c3oc4c(c3cc12)CCCC4	?	-5.0	3.9%	0.6%
O=C(CCl)Nc1ccccc1C(=O)NCc1ccccc1	-108.6*	-6.5	18.4%	1.4%
COC(=O)C1=C(C)N(Cc2ccccc2)C(=NCc2cc(OC)c(OC)c(OC)c2)N[C@H]1c1ccc(Br)cc1	-86.2*	-14.4	-14.9%	?
COC(=O)C1=C(C)N(Cc2ccccc2)C(=NCc2cc(OC)c(OC)c(OC)c2)N[C@H]1c1ccccc1	/	/	7.3%	0.9%
CCOc1ccc(-n2c(-c3ccc(Br)cc3)c[n+]3c2CCCCC3)cc1	-85.3*	-81.3*	-2.5%	-4.5%
CCOc1ccc(-n2c(-c3ccc(OC)cc3)c[n+]3c2CCCCC3)cc1	-32.4	-19.6	0.2%	-4.7%
CC12CCC(=O)N1C(C(=O)NCc1ccccc1F)CS2 (centres undefined)	1.2	7.6	9.7%	1.3%
C=CCOC(=O)/C(=C/c1cccc2ccccc12)NC(=O)c1ccccc1	-25.4	-274.7*	6.4%	-0.2%
O=C(OCc1ccccc1)/C(=C/c1cccc2ccccc12)NC(=O)c1ccccc1	-26.0	-6.7	3.9%	1.8%
N#CC1C(=N)Cc2ccccc2-c2ccccc21 (centres undefined)	-0.6	-7.5	17.2%	3.6%
CCOC(=O)Cn1c(=O)c(-c2cc(Br)ccc2N)nc2ccccc21	-39.5	-241.8*	2.2%	7.3%
CCNC(=S)Nc1cccc(S(=O)(=O)Nc2ccccc2OC)c1	-85.4*	3.2	3.1%	1.0%
COc1ccccc1NS(=O)(=O)c1cccc(NC(=O)Nc2ccccc2)c1	-4.1	7.5	9.1%	-2.8%
Cc1ccc2c(c1)cc(CN(Cc1ccc3c(c1)OCO3)C(=O)c1cnccn1)c1nnnn12	-96.5*	-0.3	-9.8%	-0.7%
CCOc1ccccc1OCCN1CCC(Cc2ccccc2)CC1	?	4.8	-7.0%	0.6%
CC1CCN(CCCOc2ccc(OCc3ccccc3)cc2)CC1	-80.2*	16.0	-11.5%	-0.4%
CCC(=O)c1ccccc1OCCCN1CCC(Cc2ccccc2)CC1	-100.2*	-130.8*	4.4%	-0.3%
CC(=O)CCc1ccc(OCCCCN2CCC(Cc3ccccc3)CC2)cc1	-93.8*	27.2	-8.9%	-1.6%
CC1CCN(CCCCOc2ccc(C(=O)c3ccccc3)cc2)CC1	-41.4	57.2	-18.7%	0.1%
c1ccc(-c2ccccc2OCCCN2CCCC2)cc1	-19.3	13.7	10.0%	2.4%
N#Cc1ccccc1OCCCN1CCC(Cc2ccccc2)CC1	-96.5*	-89.6*	26.7%	-0.4%
O=C(Cc1cccc(NC(=O)C2CCCN(C(=O)C3CCC3)C2)c1)Nc1cccc(C(=O)N2CCOCC2)c1 (centres undefined)	0.6	-9.4	39.0%	-0.4%
COc1ccc(C(=O)N/C(=C\c2cccc3ccccc23)C(=O)N2CCN(C)CC2)cc1	-46.4	23.6	-2.5%	0.0%
COc1cccc(OC)c1OCCCCN1CCC(Cc2ccccc2)CC1	-70.7*	-7.6	15.0%	-3.1%
O=C(OCC(=O)N1CCCCCC1)c1ccc(F)cc1F	-2.5	5.2	-0.4%	-3.4%
O=C(N=C1SC2CS(=O)(=O)CC2N1c1ccc(Br)cc1F)C1CC1 (centres undefined)	18.2	-156.3*	2.0%	-1.2%
CC(Oc1ccccc1)C(=O)Nc1cc(Cl)ccc1-n1cncn1 (centres undefined)	-9.3	3.3	-7.0%	-2.4%

# Some of the entries above, set out differently.
Structure: O=C(OCC(=O)N1CCCCCC1)c1ccc(F)cc1F
  KCNH2 3.1 inh: -2.5	KCNH2 WT inh: 5.2	Rango dissoc inh: -0.4%	Rango complex inh: -3.4%

Structure: O=C(N=C1SC2CS(=O)(=O)CC2N1c1ccc(Br)cc1F)C1CC1 (centres undefined)
  KCNH2 3.1 inh: 18.2	KCNH2 WT inh: -156.3*	Rango dissoc inh: 2.0%	Rango complex inh: -1.2%

# Gathered by group: those above with a thiophene ring, fused or not (2)
Molecule	KCNH2 3.1 inh	KCNH2 WT inh	Rango dissoc inh	Rango complex inh
N#C/C(=C/c1ccc(-c2ccccc2)o1)c1nc(-c2cccs2)cs1	-75.9*	-19.9	?	?
N#C/C(=C\c1ccc(-c2ccc(F)cc2)o1)C(=O)Nc1nc(-c2cccs2)cs1	13.1	13.4	20.5%	1.3%

# (continued)
Molecule	KCNH2 3.1 inh	KCNH2 WT inh	Rango dissoc inh	Rango complex inh
CCCSc1cc(N2CCN(C)CC2)nc(-c2ccc(OC)cc2)n1	-70.6*	-26.1	-14.5%	6.9%
COc1ccc(-n2c(=S)[nH]c3cc(C(=O)Nc4ccc(F)cc4)ccc3c2=O)c(OC)c1	19.8	-3.9	-5.7%	0.3%
CCCCNc1c2c3c(cccc3n(C)c1=O)C(=O)c1ccccc1-2	-3.5	-8.3	?	?
Cn1c(=O)c(NCCc2ccccc2)c2c3c(cccc31)C(=O)c1ccccc1-2	-83.3*	-70.4*	?	?
Cc1ccc(C(=O)Oc2ccc(C(=O)COC(=O)C3CC(=O)N(Cc4ccco4)C3)cc2)cc1 (centres undefined)	-87.3*	-0.8	-6.2%	-3.9%
CCO/C=C/C(O)(CNC(=O)c1ccc(C(C)(C)C)cc1)C(F)(F)F (centres undefined)	-72.3*	5.6	-6.1%	-1.9%
CCOC(=O)CNC(=O)c1ccc(C)cc1	2.0	-1.4	-6.2%	0.3%
CN(C(=O)c1cccc(NC(=O)Cc2ccc(NC(=O)C3CCCN(C(=O)C4CC4)C3)cc2)c1)C1CCC1 (centres undefined)	-30.6	-6.3	18.6%	4.5%
O=C(/C=C/c1ccccc1)c1cc(Br)ccc(=O)c1O	-0.3	-11.8	-15.8%	1.8%
Cc1ccc(/C=C/C(=O)c2ccccc(=O)c2O)cc1C	1.6	3.4	8.2µM*	?
CC(=O)OCC1OC(n2c(S)c(C#N)c(-c3ccccc3)c(C#N)c2=O)C(OC(C)=O)C(OC(C)=O)C1OC(C)=O (centres undefined)	/	-3.6	-22.7%	-2.3%
CC(C)Oc1ccc(C(=O)OC(C)C(=O)NC2CCCCC2C)cc1 (centres undefined)	-1.3	4.8	-3.5%	25.9µM*

# From PubChem BioAssay
